This passage reports activation (rescue from dofetilide block), less the hit threshold results from PubChem BioAssay AID1511 (Johns Hopkins Ion Channel Center, 2009).

Chains of the proteins cited; added tags and fusions are not shown.
UniProt Q12809, whole entry: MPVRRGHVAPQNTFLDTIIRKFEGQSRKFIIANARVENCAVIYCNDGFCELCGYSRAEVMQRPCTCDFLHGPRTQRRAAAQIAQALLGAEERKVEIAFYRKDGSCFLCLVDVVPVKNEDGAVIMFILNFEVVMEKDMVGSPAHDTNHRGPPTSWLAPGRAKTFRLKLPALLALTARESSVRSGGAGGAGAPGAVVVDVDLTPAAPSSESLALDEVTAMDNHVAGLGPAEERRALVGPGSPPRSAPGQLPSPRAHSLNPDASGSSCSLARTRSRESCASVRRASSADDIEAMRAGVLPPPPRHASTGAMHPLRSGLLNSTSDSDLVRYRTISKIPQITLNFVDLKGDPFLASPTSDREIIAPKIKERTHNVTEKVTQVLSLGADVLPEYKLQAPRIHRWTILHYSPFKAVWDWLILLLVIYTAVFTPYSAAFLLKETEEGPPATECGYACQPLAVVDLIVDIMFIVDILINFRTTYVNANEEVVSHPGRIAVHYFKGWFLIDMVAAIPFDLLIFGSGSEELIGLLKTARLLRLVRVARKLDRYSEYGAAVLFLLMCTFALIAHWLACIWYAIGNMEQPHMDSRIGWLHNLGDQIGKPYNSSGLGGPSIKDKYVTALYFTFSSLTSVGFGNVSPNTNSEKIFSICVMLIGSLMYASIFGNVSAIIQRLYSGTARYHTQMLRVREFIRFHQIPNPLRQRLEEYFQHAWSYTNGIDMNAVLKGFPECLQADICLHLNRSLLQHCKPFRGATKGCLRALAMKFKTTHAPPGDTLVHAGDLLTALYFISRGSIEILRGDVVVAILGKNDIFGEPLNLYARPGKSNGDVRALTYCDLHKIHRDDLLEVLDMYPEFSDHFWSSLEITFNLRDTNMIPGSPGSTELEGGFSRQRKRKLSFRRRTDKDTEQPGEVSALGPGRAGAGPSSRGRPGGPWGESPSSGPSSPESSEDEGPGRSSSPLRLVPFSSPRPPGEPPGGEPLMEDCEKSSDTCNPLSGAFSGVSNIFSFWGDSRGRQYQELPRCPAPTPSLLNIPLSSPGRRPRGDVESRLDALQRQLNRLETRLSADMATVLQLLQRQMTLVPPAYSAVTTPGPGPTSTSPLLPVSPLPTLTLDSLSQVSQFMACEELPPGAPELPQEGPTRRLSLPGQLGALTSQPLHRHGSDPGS

Only a part is listed here, and it is no random draw. Some results for these compounds are left out of this collection, so the calls shown say nothing about other tests. Calls of active or inactive are those of the source.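 The calls were made as follows: active = activation above the mean of controls blocked by dofetilide plus 5 SD; inactive = the rest.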

For this experiment, the target named is Voltage-gated inwardly rectifying potassium channel KCNH2 (Homo sapiens) (UniProt Q12809). The experiment can be described thus: PubChem AID 1511.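 Also: thallium influx through hERG after potassium depolarization seen as dye fluorescence rise.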 The following applies: CHO-hERG, FluxOR thallium flux, dofetilide IC70 present; at 10 µM; stronger effect = higher value.
`O=C(NCC1(N2CCCCC2)CCCCC1)c1cc(F)c(F)cc1Cl`: the activation (rescue from dofetilide block), less the hit threshold is inactive: -2.06%.

As to `C=CCN1CCN(CCOC(=O)C(O)(c2ccccc2)c2ccccc2)CC1`, the activation (rescue from dofetilide block), less the hit threshold is inactive: -5.02%.

As for `O=C(NCC1(N2CCCCC2)CCCCC1)c1cccc(Br)c1`, the activation (rescue from dofetilide block), less the hit threshold is inactive: -6.7%.

On to `Cc1cc(C(=O)NCC2(N3CCCCC3)CCCCC2)ccc1[N+](=O)[O-]`, for which the activation (rescue from dofetilide block), less the hit threshold was inactive: -6.53%.

Consider `CCN1CCCC(OC(=O)C2(O)c3ccccc3C=Cc3ccccc32)C1` (centres undefined), for which the activation (rescue from dofetilide block), less the hit threshold is inactive: -11.1%.

For `COc1ccc(C(=O)NCC2(N(C)C)CCCCC2)cc1`, the activation (rescue from dofetilide block), less the hit threshold is inactive: -0.41%.

For the molecule `CN(C)C1CCCC1OC(=O)C(O)(c1ccccc1)c1ccccc1` (centres undefined), the activation (rescue from dofetilide block), less the hit threshold is inactive: -12.8%.

With `CN(C)c1ccc(C(=O)NCC2(N(C)C)CCCCC2)cc1`, the activation (rescue from dofetilide block), less the hit threshold is inactive: -4.01%.

On to `Cc1ccccc1C(=O)NCC1(N2CCCCC2)CCCCC1`, for which the activation (rescue from dofetilide block), less the hit threshold was inactive: -10.4%.

With `CC(C)N1C(=O)CC2(CCN(CCOC(=O)C(O)(c3ccccc3)c3ccccc3)CC2)C1=O`, the activation (rescue from dofetilide block), less the hit threshold was inactive: -6.29%.

As for `COc1cc(SC)ccc1C(=O)NCC1(N(C)C)CCCCC1`, the activation (rescue from dofetilide block), less the hit threshold was inactive: 0.2%.

Consider `CCN(CC)CC(C)C(C)OC(=O)C(O)(c1ccccc1)c1ccccc1` (centres undefined), for which the activation (rescue from dofetilide block), less the hit threshold was inactive: -11.9%.

On to `Cc1ccc(C(=O)NCC2(N3CCCCC3)CCCCC2)cc1`, for which the activation (rescue from dofetilide block), less the hit threshold is inactive: -5.04%.

Consider `O=C(NCC1(N2CCCCC2)CCCCC1)c1cc([N+](=O)[O-])ccc1Cl`, for which the activation (rescue from dofetilide block), less the hit threshold was inactive: -1.27%.

Turning to `CN1[C@@H]2CC[C@H]1CC(OC(=O)C(O)(c1ccccc1)c1ccccc1)C2` (some centres undefined), the activation (rescue from dofetilide block), less the hit threshold was inactive: -9.68%.

As to `COc1ccc(Br)c(C(=O)NCC2(N3CCCCC3)CCCCC2)c1`, the activation (rescue from dofetilide block), less the hit threshold is inactive: -15.3%.

In the case of `CN(C)c1cccc(C(=O)NCC2(N(C)C)CCCCC2)c1`, the activation (rescue from dofetilide block), less the hit threshold was inactive: -8.54%.

For the molecule `CC(C)Oc1ccc(C(=O)NCC2(N(C)C)CCCCC2)cc1`, the activation (rescue from dofetilide block), less the hit threshold is inactive: -0.64%.

As to `O=C(OC1CN2CCC1CC2)C(CO)(c1ccccc1)c1ccccc1` (centres undefined), the activation (rescue from dofetilide block), less the hit threshold is inactive: -5.22%.

Take `COc1ccc(Cl)cc1C(=O)NCC1(N(C)C)CCCCC1`: the activation (rescue from dofetilide block), less the hit threshold is inactive: -3.86%.

Take `COc1cccc(C(=O)NCC2(N3CCCCC3)CCCCC2)c1`: the activation (rescue from dofetilide block), less the hit threshold is active: 6.13%.

For `O=C(NCC1(N2CCCCC2)CCCCC1)c1cccc(Cl)c1`, the activation (rescue from dofetilide block), less the hit threshold was inactive: -4.63%.

Consider `CN(C)C1(CNC(=O)c2ccc(Br)cc2)CCCCC1`, for which the activation (rescue from dofetilide block), less the hit threshold was inactive: -6.22%.

`COc1cc(C(=O)NCC2(N(C)C)CCCCC2)c([N+](=O)[O-])cc1OC`: the activation (rescue from dofetilide block), less the hit threshold was inactive: -5.95%.
